In patent publication US8772304B2, “Benzimidazole inhibitors of leukotriene production” (Boehringer Ingelheim International GmbH, priority 2010, dated 2014):

System: synthesis of LTB4 in human whole blood
Test: human whole blood LTB4 production inhibition assay
Format: cell-based
Settings: heparinized human whole blood, calcimycin 20 μM stimulation, plasma LTB4; read-out: hWB IC50
Experimental: Compounds are additionally tested in a human whole blood assay to determine their ability to inhibit the synthesis of LTB4 in a cellular system. Compounds are combined with heparinized human whole blood and incubated for 15 minutes at 37° C. Calcimycin (20 μM final, prepared in phosphate-buffered saline, pH 7.4) is then added and the mixture is incubated for another 30 minutes at 37° C. The samples are centrifuged for 5 min at low speed (1500×g) and the plasma layer is removed. Plasma LTB4 concentrations are then measured using an antibody-based homogenous time-resolved fluorescence method (CisBio, Bedford, Mass.).

- IC50: 270 nM
Compound: CC(C)(C)n1c(-c2ccnc(Br)c2)nc2cc(-c3cnc(N)nc3)ccc21 [Example 19, 5-[2-(2-Bromo-pyridin-4-yl)-1-tert-butyl-1H-benzimidazol-5-yl]-pyrimidin-2-ylamine]
